One assay has as its system HEL. As to the kind of experiment: cells. It counts as functional, cell-based. The following applies: Homo sapiens, 48 h.
Another assay addresses Histone deacetylase 2 (Homo sapiens, UniProt Q92769). As to the kind of experiment: biochemical. It counts as cell-based, S9.
For another assay, the target named is Histone deacetylase 1 (Homo sapiens, UniProt Q13547). As to the kind of experiment: Inhibition of full length human recombinant HDAC1 expressed in baculovirus using Ac-Leu-GlyLys(Ac)-AMC as substrate after 30 mins by fluorescence assay.

Sequences of proteins named here, by UniProt entry; tags and fusion partners are left off.
UniProt Q92769, whole entry: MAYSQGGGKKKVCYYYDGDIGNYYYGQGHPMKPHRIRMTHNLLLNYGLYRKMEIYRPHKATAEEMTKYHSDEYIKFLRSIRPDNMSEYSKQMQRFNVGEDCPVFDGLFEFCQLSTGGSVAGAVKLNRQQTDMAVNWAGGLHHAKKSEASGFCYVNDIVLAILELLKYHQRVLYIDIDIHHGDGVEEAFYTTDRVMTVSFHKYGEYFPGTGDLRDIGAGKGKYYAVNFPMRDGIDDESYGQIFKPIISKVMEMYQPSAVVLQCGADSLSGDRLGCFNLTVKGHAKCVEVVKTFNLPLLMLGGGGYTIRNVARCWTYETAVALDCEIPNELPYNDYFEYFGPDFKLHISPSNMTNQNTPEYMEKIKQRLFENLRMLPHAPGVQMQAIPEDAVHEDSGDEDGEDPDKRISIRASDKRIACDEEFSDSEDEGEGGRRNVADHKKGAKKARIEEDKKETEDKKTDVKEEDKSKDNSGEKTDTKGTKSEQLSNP
UniProt Q13547, whole entry: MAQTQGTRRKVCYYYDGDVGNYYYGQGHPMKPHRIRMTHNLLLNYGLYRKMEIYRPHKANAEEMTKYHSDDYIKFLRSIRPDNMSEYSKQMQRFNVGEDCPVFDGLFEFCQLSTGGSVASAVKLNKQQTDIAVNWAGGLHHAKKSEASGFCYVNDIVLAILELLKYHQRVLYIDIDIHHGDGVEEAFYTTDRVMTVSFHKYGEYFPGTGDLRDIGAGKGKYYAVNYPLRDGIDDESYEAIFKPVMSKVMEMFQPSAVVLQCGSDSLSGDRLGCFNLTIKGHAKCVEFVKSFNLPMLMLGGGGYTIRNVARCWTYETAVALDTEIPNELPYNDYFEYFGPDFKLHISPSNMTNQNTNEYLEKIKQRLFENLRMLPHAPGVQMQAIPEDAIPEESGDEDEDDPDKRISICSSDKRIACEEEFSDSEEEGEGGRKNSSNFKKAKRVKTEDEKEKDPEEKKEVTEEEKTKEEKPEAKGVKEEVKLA

One may read the IC50 as the concentration that gives 50% inhibition. `O=C(CCCCCOc1no[n+]([O-])c1S(=O)(=O)c1ccccc1)NO`: the IC50 in the assay on HEL amounted to 380 nM; against Histone deacetylase 2 it was 380 nM; at Histone deacetylase 1, 241 nM.

The values are drawn from ChEMBL document CHEMBL3425494, “Design, synthesis, and antitumor evaluation of novel histone deacetylase inhibitors equipped with a phenylsulfonylfuroxan module as a nitric oxide donor” (J Med Chem, 2015).
